Results taken from patent US9216991B2 (Ares Trading S.A., priority 2012, dated 2015).

Chains of the proteins cited; added tags and fusions are not shown.
UniProt Q9NWZ3, whole entry: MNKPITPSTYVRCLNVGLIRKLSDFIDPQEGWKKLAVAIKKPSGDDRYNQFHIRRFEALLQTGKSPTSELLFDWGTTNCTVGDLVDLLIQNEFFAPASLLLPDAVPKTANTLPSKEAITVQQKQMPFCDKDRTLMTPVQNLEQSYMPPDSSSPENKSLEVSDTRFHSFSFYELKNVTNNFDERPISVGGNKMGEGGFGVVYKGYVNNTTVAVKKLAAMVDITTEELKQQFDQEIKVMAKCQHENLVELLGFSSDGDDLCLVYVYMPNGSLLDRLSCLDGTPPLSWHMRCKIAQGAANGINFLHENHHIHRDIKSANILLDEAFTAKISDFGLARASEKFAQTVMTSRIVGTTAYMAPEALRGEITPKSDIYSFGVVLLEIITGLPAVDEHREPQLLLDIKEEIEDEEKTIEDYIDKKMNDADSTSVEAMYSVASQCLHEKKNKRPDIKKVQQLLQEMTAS

Target: IRAK4 (Homo sapiens, UniProt Q9NWZ3)
Assay: IRAK4 Enzymatic Assay
Settings: read-out: IRAK4 IC50; His-TEV-IRAK4 20 ng/well, ATP 2 μM, STK1-biotin peptide 300 nM, 3 hours at 30° C., FlashPlate radioactivity
Protocol: IRAK4 is a human purified recombinant enzyme (His-TEV-IRAK1 (194-712)
IRAK4 hydrolyses ATP, autophosphorylates and phosphorylates a Serine/Threonine generic peptidic substrate (STK: 61ST1BLC from CisBio International based in Bagnols/Cèze FR).
Measurement of IRAK-4 inhibition is performed in streptavidin coated 384 well FlashPlate (PerkinElmer #SMP410A). His-TEV-IRAK4 (20 ng/well), ATP (2 μM, [^33P]ATP 0.25 μCi/well), STK1-biotin peptide (300 nM) and compounds in DMSO (range of concentrations from 20 μM to 1nM) or controls (2% DMSO) are incubated for 3 hours at 30° C. in assay buffer: Hepes pH7.0 50 mM, Fatty acid-free BSA 0.1%, Dithiothreitol DTT 2 mM, MgCl2 10 mM, EGTA 0.5 mM, Tween-20 0.01%, MnCl2 5 mM.
Kinase reaction is stopped by addition of EDTA. Supernatant is discarded, plates are washed three times with 150 mM NaCl and radioactivity is then measured in a Microbeta Trilux reader.

Row | IC50 | SMILES
1 | 0.1 to 1 µM | COCC1COCCN1C(=O)Cn1cc(-c2cnc(-c3cccc(-c4cnn(C)c4)c3)nc2)cn1 (stereo not drawn)
2 | 0.1 to 1 µM | Cn1cc(-c2cccc(-c3ncc(-c4cnn(C5CCOC6(CCOCC6)C5)c4)cn3)c2)cn1 (stereo not drawn) [Example 267, 5-[1-(1,9-Dioxa-spiro[5.5]undec-4-yl)-1H-pyrazol-4-yl]-2-[3-(1-methyl-1H-pyrazol-4-yl)-phenyl]-pyrimidine]
3 | < 0.1 µM | Cn1cc(-c2cccc(-c3ncc(-c4cnn(C5CCCSC5)c4)cn3)c2)cn1 (stereo not drawn)
